Measurements reported in patent US20250122301A1 (IBIO, published 2025).

Biological target: T1, CD25 on CD25+ cells (SUDHL-1, HEK IL-2 reporter cells, primary human regulatory T cells) (human, UniProt P01589 22-272)
T1 construct: whole, on cells; also called IL-2Ralpha
T1 sequence (looked up): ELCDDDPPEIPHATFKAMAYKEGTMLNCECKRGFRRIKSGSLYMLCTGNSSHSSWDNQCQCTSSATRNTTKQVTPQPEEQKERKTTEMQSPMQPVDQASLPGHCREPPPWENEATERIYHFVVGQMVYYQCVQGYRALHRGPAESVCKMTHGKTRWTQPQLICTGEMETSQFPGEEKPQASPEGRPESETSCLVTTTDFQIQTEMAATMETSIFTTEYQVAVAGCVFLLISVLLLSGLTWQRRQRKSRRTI
Assay: flow cytometry, dose response on CD25+ SUDHL-1 cells;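 note: antibody binding to cells read as median fluorescence intensity of an AF647 anti-human Fc secondary, DAPI+ dead cells excluded, 20 min on ice, 5-fold dilutions from 10 ug/mL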

B1: Basiliximab (antibody, V domains shown)
VH: QVQLQQSGTVLARPGASVKMSCKASGYSFTRYWMHWIKQRPGQGLEWIGAIYPGNSDTSYNQKFEGKAKLTAVTSASTAYMELSSLTHEDSAVYYCSRDYGYYFDFWGQGTTLTVSS
VL: QIVSTQSPAIMSASPGEKVTMTCSASSSRSYMQWYQQKPGTSPKRWIYDTSKLASGVPARFSGSGSGTSYSLTISSMEAEDAATYYCHQRSSYTFGGGTKLEIK
With B1 the EC50 was 0.0573 µg/mL.
